Measured affinities in a library of Ab-14 light chain variants

Reference: Engelhart et al. 2022, doi:10.1038/s41597-022-01779-4. File: FLAb, binding data.

Antigen: PDVDLGDISGINAS, a 14-residue peptide of the SARS-CoV-2 spike HR2 region.

Each scFv is VH, three GGGGS repeats, VL, as in the parent Ab-14, and differs from it in the CDRs of the light chain only.
VH: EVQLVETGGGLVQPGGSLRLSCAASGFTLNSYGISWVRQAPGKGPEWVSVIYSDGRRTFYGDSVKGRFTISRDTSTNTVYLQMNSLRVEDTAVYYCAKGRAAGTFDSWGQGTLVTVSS
VL: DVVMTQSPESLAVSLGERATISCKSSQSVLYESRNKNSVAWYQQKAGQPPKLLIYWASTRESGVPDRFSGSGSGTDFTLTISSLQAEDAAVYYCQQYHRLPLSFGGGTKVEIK

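The parent was found by panning a naive human phage display library on the peptide. AAYL50 was designed without a model: most single CDR substitutions and a random sample of double and triple ones. The scFvs were displayed on barcoded MATa yeast, the peptide on MATalpha yeast. The frequency of each diploid, read from paired DNA barcodes, reflects how well the two displayed proteins bind. Read counts were normalised to the haploid input and turned into Kd by a linear fit to BCL2-family pairs of known affinity, for each replicate. The assay was run in three technical replicates.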

Variants are written as CDR1, CDR2 and CDR3 of the light chain (limits as in the source). Parent: KSSQSVLYESRNKNSVA, WASTRES, QQYHRLPLS.
The read-out is the apparent dissociation constant on a log10 scale (nM): the lower, the stronger.
An entry "n.d." has no value in the source: the pair was not observed among the diploids in that replicate. This suggests poor binding but is not conclusive.
Empty control strains, which show no peptide, gave a signal in 18% of pairings with library AAYL50; the median was 4.19 and 95% of these signals were weaker than 2.99. No background was subtracted. The control count says in how many pairings with the empty strains this scFv gave a signal, with their mean in brackets.
For reference, the parent read 0.65 as the reference entry and 1.68 as a member of this library.

CDR-L1	CDR-L2	CDR-L3	log10 Kd (nM) by replicate	signal with controls
KSSQSVLYESDNKNSVA	WAQTRES	NQYHRLPLS	4.59 / n.d. / n.d.	2 of 9 (4.47)
KSSPSVLYESRNKNSVA	WMSTRES	QQYPRLPLS	n.d. / n.d. / 3.87	1 of 9 (3.35)
KSSQSVLYESRAKNSVA	WATTRES	QQYHRLPLS	1.12 / 0.93 / 0.70	2 of 9 (4.73)
KSSQSVLYEVRNKNSVA	WASVRSS	QQYHRLPLS	3.47 / 3.23 / 4.18	3 of 9 (3.93)
VSSQSVTYESRNKNSVA	WASTRES	QQYHRHPLS	n.d. / 4.05 / n.d.	4 of 9 (4.50)
KSSQSVLYESRNKNWVA	WASTRES	QQYHEHPLS	n.d. / 4.71 / n.d.	1 of 9 (3.32)
KSSQSVLYESRNKNSVA	CASTRES	FQYHRLMLS	4.69 / 3.38 / 4.39	4 of 9 (4.47)
KSSQSVLYASRYENSVA	WASTRES	QQYHRLPLS	1.18 / 1.26 / 1.29	7 of 9 (4.15)
KSSQSVLYEARNKNSVA	WASSLES	QQYHRLPLS	2.33 / 1.75 / 2.48	0 of 9
KSSQPVLYESRNKNSVA	WASTGES	QQYRRLPLS	n.d. / n.d. / 3.20	0 of 9
KISYSVLYESRNKNSVY	WASTRES	QQYHRLPLS	4.30 / n.d. / 3.95	1 of 9 (4.63)
KSSQSVLYESRNKNSVA	WVSTRES	QQYHRLPNS	n.d. / n.d. / 4.02	1 of 9 (2.99)
KSSQSVLYESRNKNSVA	WASARES	QQYHRLPLS	n.d. / n.d. / n.d.	1 of 9 (3.82)
KSPQSVLYESRNKNSVA	WASTRES	QQYHRLHLS	1.32 / 1.68 / 1.82	3 of 9 (4.15)
KSSQSQLYESRNKNVVA	WASTRES	QQYHRLPLS	n.d. / n.d. / 3.26	3 of 9 (3.92)
KSSQKVLYESRNKPSVA	WASTRES	QQYHDLPLS	2.92 / 2.32 / 2.72	1 of 9 (3.42)
KSSQSVLIEWRNKNSVA	WASTRES	QQYHRLPLN	n.d. / n.d. / n.d.	0 of 9
KSSQSVLYESRNKNSVA	WRSTRES	QQYHRLPLS	n.d. / 2.54 / 2.09	2 of 9 (2.64)
KSSQSVLYESRNKNWVA	WASTRES	QQYLRRPLS	n.d. / n.d. / n.d.	0 of 9
KSHQSVLYYSRNKNSVA	WASTRES	QQYHRLPLS	2.67 / 2.48 / 2.43	4 of 9 (4.04)
KSSQSVLYESRNKNNVA	WASTRES	QQYHRLPLS	0.65 / 0.90 / 0.68	2 of 9 (4.78)
KSSWSVLYESRNRNSVA	WASTRES	QQYHCLPLS	n.d. / 4.26 / n.d.	0 of 9
KSSQSVLYESRNKNSHA	WASTRES	QQYHREPLS	n.d. / n.d. / n.d.	2 of 9 (4.59)
KSSQSVLYESRNKNSVK	WNSTRES	QEYHRLPLS	n.d. / n.d. / n.d.	2 of 9 (3.92)
KSAQSVLYESRNKNSVA	WASTRES	QQYSRLPLS	1.12 / 1.38 / 1.11	2 of 9 (3.81)
KSSQSVLCCSRNKNSVA	WASTRED	QQYHRLPLS	2.86 / 2.91 / 2.73	3 of 9 (4.31)
KSSQSVLYESEDKNSVA	WASTREM	QQYHRLPLS	0.82 / 0.93 / 1.17	1 of 9 (3.19)
KSSQSVLYLSRNKNMVA	WASTRES	DQYHRLPLS	n.d. / n.d. / n.d.	0 of 9
KLSQSVLYESRKKNSVA	WASTRES	QQCHRLPLS	n.d. / n.d. / n.d.	0 of 9
KSSQSVLYESRNINSVA	WASTREG	QHYHRLPLS	2.07 / 2.14 / 2.02	1 of 9 (6.01)
KSSLSYLYESRNKNSVA	WASTRTS	QQYHRLPLS	1.27 / 1.23 / 1.40	1 of 9 (3.69)
KSSQSVLYEKRNKNPVA	WASTREG	QQYHRLPLS	3.51 / 2.52 / 3.04	1 of 9 (3.05)
KSSQSVLYESRNKNSVA	WASTRER	QQYHRFALS	3.24 / n.d. / n.d.	1 of 9 (2.52)
KSSQSVLYMTRNKNSVA	WASTSES	QQYHRLPLS	n.d. / n.d. / n.d.	0 of 9
KSSQSVLYSSRNKNSVA	WASGRES	QQYHRLPDS	4.20 / n.d. / n.d.	2 of 9 (3.31)
KLSQSVLYESRNKNSVA	WASTRES	QQYHRLPLS	-0.36 / 0.06 / -0.24	3 of 9 (4.52)
KSSQSVLYLHRNKNSVA	WASDRES	QQYHRLPLS	2.04 / 1.57 / 1.66	0 of 9

The closing 3 entries, repeated:

CDR-L1	CDR-L2	CDR-L3	log10 Kd (nM) by replicate	signal with controls
KSSQSVLYSSRNKNSVA	WASGRES	QQYHRLPDS	4.20 / n.d. / n.d.	2 of 9 (3.31)
KLSQSVLYESRNKNSVA	WASTRES	QQYHRLPLS	-0.36 / 0.06 / -0.24	3 of 9 (4.52)
KSSQSVLYLHRNKNSVA	WASDRES	QQYHRLPLS	2.04 / 1.57 / 1.66	0 of 9